{"source": "patent US7803381B2", "about": "“Retro-inverso gonadotropin-releasing hormone peptide and vaccine composition” (Shimoda Biotech (Pty) Ltd., priority 2002, dated 2010)", "key": {"human GnRH receptor": {"target": "T1, human GnRH receptor (Homo sapiens, UniProt P30968)", "T1 construct": "expressed in transfected cells; host or cells: COS-1 cells, transient transfection (DEAE-Dextran), vector pcDNA I/AMP", "T1 sequence (P30968 1-328)": "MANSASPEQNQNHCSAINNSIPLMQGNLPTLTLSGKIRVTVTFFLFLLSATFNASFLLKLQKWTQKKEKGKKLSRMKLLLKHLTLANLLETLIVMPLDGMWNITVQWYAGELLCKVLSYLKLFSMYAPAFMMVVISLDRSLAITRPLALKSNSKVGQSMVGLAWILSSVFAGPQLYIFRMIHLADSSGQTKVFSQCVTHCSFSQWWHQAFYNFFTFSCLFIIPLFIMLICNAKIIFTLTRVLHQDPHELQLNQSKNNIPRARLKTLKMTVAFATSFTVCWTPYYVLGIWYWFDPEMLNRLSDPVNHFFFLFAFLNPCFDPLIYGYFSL", "assay": "GnRH analog-stimulated inositol phosphate (IP) accumulation in COS-1 cells transiently transfected with human GnRH receptor", "format": "cell-based", "details": "absence of antibody; read-out: EC50 of ligand-stimulated IP accumulation", "procedure": "COS-1 cells were cultured in Dulbecco's modified Eagle's medium/DMEM (Life Technologies, Inc., Paisley, Scotland), supplemented with 10% foetal calf serum (FCS, Delta bioproducts, Kempton Park, South Africa) in a 10% CO2 incubator at 37° C. Cells were harvested with 0.05% trypsin. For all transient transfections 2×10^5 cells/well were seeded into 12-well plates and cultured overnight in DMEM containing 10% FCS and antibiotics (2 mg/ml streptomycin sulphate, 4000 U/ml sodium benzyl penicillin). COS-1 cells were transiently transfected using the DEAE-Dextran method, as previously described.\nThe transfected COS-1 cells (2×10^5 cells/well) were incubated overnight in 0.5 ml Medium 199 (Life Technologies Inc.) with antibiotics and myo-[2-^3H] inositol (1 μCi/well, Amersham Pharmacia Biotech) as previously described. […] Aspirating the medium and addition of 10 mM formic acid (1 ml/well) terminated the incubation. Inositol phosphates separated from the formic acid extract on DOWEX-1 ion exchange columns and eluted into scintillation liquid (Quicksafe, Zinsser Analytical, Frankfurt, Germany) and the radioactivity was counted.\nIP assays were performed in duplicate and four-parameter nonlinear curve fitting (PRISM, GraphPad Software, In., San Diego, Calif.) was used to estimate the peptide concentrations required to stimulate half-maximal IP production (EC50). […]"}, "[1]": {"tested_on": "purified rabbit anti-RI-GnRH antibodies", "assay": "Inhibition immunoassay (ELISA): peptide displacement of anti-RI-GnRH antibodies from fixed RI-GnRH", "format": "binding", "details": "increasing peptide concentrations", "procedure": "Microtitre plates were coated with RI-GnRH peptide (5 μg/ml) in 100 mM Na2CO3 (pH=9.6) and incubated for one hour at 37° C. After several washes with PBS (pH=7.4) plates were saturated for one hour with 1% BSA in PBS supplemented with Tween 20 (0.1% wt/volume) at 37° C. Sera from immunised rabbits and mice at different dilutions (1:500 to 1:3200) were added to the plates and incubated for one hour at 37° C. […] Washed plates were reacted with 3,3′,5,5′-tetramethyl benzidine (TMB) and […] as substrate.\nNonspecific inhibition was determined with an unrelated L peptide, […](V9C), and an unrelated RI peptide ([…]. Various dilutions of anti-RI-GnRH antibodies were preincubated with increasing concentrations of peptide (3.9-1000 nM) for 1 h at 37° C. The percent inhibition of signal was calculated from the amount of anti-RI-GnRH antibodies that bound RI-GnRH in the presence of increasing peptide concentrations against the amount of anti-RI-GnRH antibodies that bound RI-GnRH in the absence of competing peptide."}}, "note": "pEC50: −log10 of the molar value."}
{"smiles": "CC(C)C[C@H](NC(=O)CNC(=O)[C@H](Cc1ccc(O)cc1)NC(=O)[C@H](CO)NC(=O)[C@H](Cc1c[nH]c2ccccc12)NC(=O)[C@H](Cc1c[nH]cn1)NC(=O)[C@@H]1CCC(=O)N1)C(=O)N[C@@H](CCC(N)=O)C(=O)N1CCC[C@H]1C(=O)NCC(N)=O", "note": "[[Gln^8]GnRH, reference compound]", "values": [{"measurement": "pEC50", "setting": "human GnRH receptor", "result": 9.00}, {"measurement": "inhibition by free peptide of anti-RI-GnRH antibody binding to fixed RI-GnRH", "setting": "[1]", "result": "cross-react less"}]}
